Biological target: T1, ferroportin tagged at the C-terminus with green fluorescent protein (Fpn-GFP) (Mus musculus, UniProt Q9JHI9)
T1 construct: expressed in transfected cells; host or cells: ECR293/Fpn-GFP (stably transfected, ponasterone-inducible)
T1 sequence (Q9JHI9 1-570): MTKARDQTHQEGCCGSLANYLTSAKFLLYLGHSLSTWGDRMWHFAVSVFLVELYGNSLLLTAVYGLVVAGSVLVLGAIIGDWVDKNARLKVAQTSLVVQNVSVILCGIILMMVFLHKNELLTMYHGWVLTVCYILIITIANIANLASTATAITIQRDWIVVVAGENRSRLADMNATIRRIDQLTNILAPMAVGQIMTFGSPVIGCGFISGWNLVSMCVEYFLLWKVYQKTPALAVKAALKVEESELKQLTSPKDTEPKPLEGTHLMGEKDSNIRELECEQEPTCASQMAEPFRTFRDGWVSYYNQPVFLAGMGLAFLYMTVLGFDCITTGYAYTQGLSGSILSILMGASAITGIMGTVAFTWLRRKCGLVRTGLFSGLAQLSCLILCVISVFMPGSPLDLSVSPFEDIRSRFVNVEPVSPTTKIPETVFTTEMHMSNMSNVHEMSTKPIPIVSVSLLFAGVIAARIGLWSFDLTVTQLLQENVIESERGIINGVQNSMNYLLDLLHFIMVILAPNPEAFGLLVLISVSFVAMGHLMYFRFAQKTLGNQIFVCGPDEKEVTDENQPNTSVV
Experiment: Flow cytometry of ferroportin-GFP degradation in ECR293/Fpn-GFP cells
Assay type: cell-based
Protocol: In vitro activity may be measured by the dose-dependent loss of fluorescence of cells engineered to display ferroportin fused to green fluorescent protein as in Nemeth et al. (2006) Blood 107:328-33. Aliquots of cells are incubated for 24 hours with graded concentrations of a reference preparation of Hep25 or a mini-hepcidin. As provided herein, the EC50 values are provided as the concentration of a given compound (e.g. peptide) that elicits 50% of the maximal loss of fluorescence generated by the reference Hep25 preparation.
Mutational studies indicate that C326, the cysteine residue at position 326 of human ferroportin, is the critical residue involved in binding hepcidin. Thus, various N-terminal fragments of Hep25 containing a thiol, i.e. Hep 4-7, Hep3-7, Hep3-8, Hep3-9, Hep1-7, Hep1-8, Hep1-9, and Hep1-10 C7A, were chemically synthesized, refolded and their activities relative to Hep25 were assayed using flow-cytometric quantitation of the ferroportin-GFP degradation, iron efflux estimation based on measurements of cellular ferritin, and radioisotopic iron efflux studies.
The activity of peptides of the present invention was measured by flow cytometry as previously described. See Nemeth et al. (2006) Blood 107:328-333, which is herein incorporated by reference. […] Cells were then trypsinized and resuspended at 1×10^6 cells/ml, and the intensity of green fluorescence was analyzed by flow cytometry. Flow cytometry was performed on FAC SCAN (fluorescence activated cell scanner) Analytic Flow Cytometer (Becton Dickinson, San Jose, Calif.) with […] version 3.3 software (Becton Dickinson). Cells not induced with ponasterone to express Fpn-GFP were used to establish a gate to exclude background fluorescence. […] For each concentration of peptide, the results were expressed as a fraction of the maximal activity (FHep25) of Hep25 (in the dose range 0.01-10 μM), according to the formula 1−((Fx−FHep25)/(Funtreated−FHep25)), where F was the mean of the gated green fluorescence and x was the peptide.

[1] = ferroportin-GFP internalization, FIG. 3

## CC[C@H](C)[C@H](NC(=O)[C@H](CS)NC(=O)[C@@H](NC(=O)[C@@H]1CCCN1C(=O)[C@H](Cc1ccccc1)NC(=O)[C@H](Cc1c[nH]cn1)NC(=O)[C@@H](NC(=O)[C@@H](N)CC(=O)O)[C@@H](C)O)[C@@H](C)CC)C(=O)N[C@@H](Cc1ccccc1)C(N)=O [Hep9]
FIGS. 1-4
  hepcidin activity relative to Hep25 (in words): quite active
[1]
  potency relative to Hep25 on a mass basis, times less potent: about 4 times
  potency relative to Hep25 on a molar basis, times less potent: about 10 times
